The values that follow come from patent publication US20120172392A1, “AMINE-BASED AND AMIDE-BASED INHIBITORS OF SEMICARBAZIDE-SENSITIVE AMINE OXIDASE (SSAO) ENZYME ACTIVITY AND VAP-1 MEDIATED ADHESION USEFUL FOR TREATMENT OF DISEASES” (priority 2004, published 2012).

By UniProt entry, the sequences of proteins in these tests, tags left out.
UniProt O08590, whole entry: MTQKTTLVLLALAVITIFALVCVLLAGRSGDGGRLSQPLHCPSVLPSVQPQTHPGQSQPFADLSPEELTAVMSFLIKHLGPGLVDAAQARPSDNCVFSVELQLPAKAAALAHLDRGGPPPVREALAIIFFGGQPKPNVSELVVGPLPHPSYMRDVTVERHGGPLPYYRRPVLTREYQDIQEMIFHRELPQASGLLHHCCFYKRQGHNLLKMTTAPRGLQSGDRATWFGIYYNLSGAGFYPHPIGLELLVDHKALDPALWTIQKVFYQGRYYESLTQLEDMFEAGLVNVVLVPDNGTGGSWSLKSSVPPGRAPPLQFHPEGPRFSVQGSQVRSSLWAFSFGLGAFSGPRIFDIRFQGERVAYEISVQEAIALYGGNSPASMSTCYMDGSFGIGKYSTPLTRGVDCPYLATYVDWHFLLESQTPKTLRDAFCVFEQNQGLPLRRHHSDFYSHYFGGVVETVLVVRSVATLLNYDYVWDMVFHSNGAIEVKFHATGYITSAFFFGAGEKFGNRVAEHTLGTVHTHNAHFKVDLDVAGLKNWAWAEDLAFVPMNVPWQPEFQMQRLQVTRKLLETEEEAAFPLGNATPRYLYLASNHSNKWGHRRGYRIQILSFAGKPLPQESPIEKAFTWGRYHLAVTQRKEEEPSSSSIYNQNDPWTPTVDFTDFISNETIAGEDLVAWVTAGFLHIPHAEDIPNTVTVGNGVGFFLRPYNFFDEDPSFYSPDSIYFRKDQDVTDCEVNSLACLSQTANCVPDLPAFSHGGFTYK
UniProt P27338, whole entry: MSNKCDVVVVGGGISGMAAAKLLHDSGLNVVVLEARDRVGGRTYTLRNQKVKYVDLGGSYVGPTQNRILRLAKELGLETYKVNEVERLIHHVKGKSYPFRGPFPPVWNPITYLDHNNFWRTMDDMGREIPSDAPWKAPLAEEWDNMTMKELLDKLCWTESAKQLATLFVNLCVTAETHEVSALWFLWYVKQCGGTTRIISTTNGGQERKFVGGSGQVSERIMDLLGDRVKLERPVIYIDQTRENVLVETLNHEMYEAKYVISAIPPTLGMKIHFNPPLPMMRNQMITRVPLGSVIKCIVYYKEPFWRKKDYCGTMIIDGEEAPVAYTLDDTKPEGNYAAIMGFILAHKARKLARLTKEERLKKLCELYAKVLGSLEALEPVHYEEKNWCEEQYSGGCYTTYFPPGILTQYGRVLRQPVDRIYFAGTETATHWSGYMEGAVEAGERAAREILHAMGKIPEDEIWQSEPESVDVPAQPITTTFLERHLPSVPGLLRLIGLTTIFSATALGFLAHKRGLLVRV
UniProt P21397, whole entry: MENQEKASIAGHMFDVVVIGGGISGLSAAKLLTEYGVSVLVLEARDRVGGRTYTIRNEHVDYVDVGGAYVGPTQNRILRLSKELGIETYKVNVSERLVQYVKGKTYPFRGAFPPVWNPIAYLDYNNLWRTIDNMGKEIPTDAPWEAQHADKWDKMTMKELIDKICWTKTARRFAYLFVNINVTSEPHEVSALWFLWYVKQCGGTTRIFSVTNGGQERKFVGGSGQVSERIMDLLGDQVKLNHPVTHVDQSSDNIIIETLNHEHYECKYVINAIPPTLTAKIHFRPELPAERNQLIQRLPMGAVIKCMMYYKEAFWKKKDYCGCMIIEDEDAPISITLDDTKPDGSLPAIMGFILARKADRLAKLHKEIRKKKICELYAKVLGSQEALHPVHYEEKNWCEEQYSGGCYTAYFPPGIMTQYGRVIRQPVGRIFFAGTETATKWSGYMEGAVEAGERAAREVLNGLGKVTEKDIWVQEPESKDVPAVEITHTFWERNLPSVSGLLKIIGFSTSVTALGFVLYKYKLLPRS

Test [1] deals with SSAO (Rattus norvegicus, UniProt O08590). As to the kind of experiment: In vitro inhibition of SSAO activity, radiolabeled benzylamine procedure (rat lung homogenate). Particulars: Table I; for IC50: compounds of formula X. Here is the method:
SSAO activity was also measured as described (Lizcano J M. Et al. (1998) Biochem J. 331:69). Briefly, rat lung homogenates were prepared by chopping the freshly removed tissue into small pieces and washing them thoroughly in PBS. The tissue was then homogenized 1:10 (w/v) in 10 mM potassium phosphate buffer (pH 7.8) and centrifuged at 1000 g at 4° C. for 10 minutes; the supernatant was kept frozen until ready to use. SSAO activity in 100 ul of lung homogenate was determined radiochemically using 20 uM ^14C-benzylamine as substrate. The reaction was carried out at 37° C. in a final volume of 300 ul of 50 mM potassium phosphate buffer (pH 7.2) and stopped with 100 ul of 2 M citric acid. Radioactively labeled products were extracted into; toluene/ethyl acetate (1:1, v/v) containing 0.6% (w/v) 2,5-diphenyloxdazole (PPO) before liquid scintillation counting.

In test [2] the target is human MAO-B (Homo sapiens, UniProt P27338). As to the kind of experiment: Inhibition of MAO-B activity, coupled colorimetric assay. The conditions noted are these: read-out: MAO-B (IC50); recombinant human MAO-B, benzylamine substrate. Here is the method:
(§1) The specificity of the different SSAO inhibitors was tested by determining their ability to inhibit MAO-A and MAO-B activities in vitro. Recombinant human MAO-A and human MAO-B enzymes were obtained from BD Biosciences (MA, USA). MAO activities were measured in a similar way as for SSAO except that no pre-incubation with inhibitor or substrate was performed. A pre-determined amount of inhibitor diluted in 0.2 M potassium phosphate buffer, pH 7.6, was added to each well, if required. The amount of inhibitor varied in each assay but was generally at a final concentration of between 50 nM and 1 mM. Controls lacked inhibitor. The following agents were then added to a final reaction volume of 200 μl in 0.2 M potassium phosphate buffer, pH 7.6: 0.04 mg/ml of MAO-A or 0.07 mg/ml MAO-B enzyme, 15 μl of 10 mM tyramine substrate (for MAO-A), or 15 μl 100 mM benzylamine substrate (for MAO-B), and 50 μl of freshly made chromogenic solution (as above). The plates were incubated for 60 min at 37° C. The increase in absorbance, reflecting MAO activity, was measured at 490 nm using microplate spectrophotometer (Power Wave 40, Bio-Tek Inst.). Inhibition was determined as percent inhibition compared to control after correcting for background absorbance and IC50 values, and was calculated using. GraphPad Prism software. Clorgyline and pargyline (inhibitors of MAO-A and -B, respectively) at 0.5 and 10 μM, respectively, were added to some wells as positive controls for MAO inhibition.

Test [3] deals with human MAO-A (Homo sapiens, UniProt P21397). As to the kind of experiment: Inhibition of MAO-A activity, coupled colorimetric assay. The conditions noted are these: read-out: MAO-A (IC50); recombinant human MAO-A, tyramine substrate. Here is the method:
as §1

A value given as a limit tells only on which side of the number the result lay.

Regarding `NCC(=O)NCc1ccc(Cl)nc1`, in test [1], the IC50 turned out to be 0.52 µM. The “% inhibition” value in test [1] (at 9 μM) came to 88%.
For `NCC(=O)NCc1cc(C(F)(F)F)ccc1F`, the IC50 in test [2] is over 1000 µM; in test [1], 0.01 µM; in test [3], over 1000 µM.
As to `NCC(=O)NCc1ccc(F)c(C(F)(F)F)c1`, the results for the IC50 in test [2], in test [1] and in test [3] were over 1200 µM, 0.18 µM and over 1200 µM, respectively.
`NCC(=O)NCc1ccc(C(F)(F)F)c(F)c1` registered an IC50 in test [1] of 0.49 µM. Also, the “% inhibition” value in test [1] (at 7 μM) amounted to 77%.
The compound `O=C(CNc1ccc(F)cc1)NCc1ccc(F)cc1` returned a 50% inhibitory concentration (IC50) in test [1] of over 100 µM.
As for `Cc1ccc(CNC(=O)CN)cc1`, in test [1], the IC50 is 0.1 µM.
The same measure, in the same setting: next, `CCN(CC)CC(=O)NCCc1ccccc1`: over 100 µM.
For `NCC(=O)NCc1cccc(C(F)(F)F)c1F`, the values for the IC50 in test [2], in test [1] and in test [3] were over 1000 µM, 0.015 µM and over 1000 µM, respectively.
`CN(C)CC(=O)NCc1ccc(F)cc1`: the IC50 in test [1] was over 100 µM.
